According to US11779768B2, “Protein activity modification” (Impulse Dynamics NV, priority 2004, dated 2023):

Tested on: phospholamban serine-16
Assay: Phosphorylation of PLB at serine-16 in failing LV tissue homogenate with/without protein kinase inhibitor and CCM signal (Western blot)
Type: biochemical, dog
Details: Control + PK Inhibitor (no CCM)

Q: For `CN[C@@H]1C[C@H]2O[C@@](C)([C@@H]1OC)n1c3ccccc3c3c4c(c5c6ccccc6n2c5c31)C(=O)NC4` [STAUROSPORIN], which “P-PLB serine-16, single sample” value (10 sec) is on record?
A: Its value is 13.7.

Q: And the “P-PLB serine-16, single sample” value (30 sec)?
A: The value was 11.9.

Q: And the “P-PLB serine-16, Av” value (60 sec)?
A: The value was 12.4.
